B1: E. coli DNA polymerase IV (enzyme)
chain: MRKIIHVDMDCFFAAVEMRDNPALRDIPIAIGGSRERRGVISTANYPARKFGVRSAMPTGMALKLCPHLTLLPGRFDAYKEASNHIREIFSRYTSRIEPLSLDEAYLDVTDSVHCHGSATLIAQEIRQTIFNELQLTASAGVAPVKFLAKIASDMNKPNGQFVITPAEVPAFLQTLPLAKIPGVGKVSAAKLEAMGLRTCGDVQKCDLVMLLKRFGKFGRILWERSQGIDERDVNSERLRKSVGVERTMAEDIHHWSECEAIIERLYPELERRLAKVKPDLLIARQGVKLKFDDFQQTTQEHVWPRLNKADLIATARKTWDERRGGRGVRLVGLHVTLLDPQMERQLVLGL
notes: Called the whole polymerase / the full PolIV enzyme; construct and tags not described; also called PolIV; Pol IV
B2: E. coli DNA polymerase IV (enzyme)
chain: B1 chain
notes: also called PolIV; Pol IV

Sequences of proteins named here, by UniProt entry; tags and fusion partners are left off. A change or cut given only in a name is not applied to a line headed by its entry.
UniProt P0A988: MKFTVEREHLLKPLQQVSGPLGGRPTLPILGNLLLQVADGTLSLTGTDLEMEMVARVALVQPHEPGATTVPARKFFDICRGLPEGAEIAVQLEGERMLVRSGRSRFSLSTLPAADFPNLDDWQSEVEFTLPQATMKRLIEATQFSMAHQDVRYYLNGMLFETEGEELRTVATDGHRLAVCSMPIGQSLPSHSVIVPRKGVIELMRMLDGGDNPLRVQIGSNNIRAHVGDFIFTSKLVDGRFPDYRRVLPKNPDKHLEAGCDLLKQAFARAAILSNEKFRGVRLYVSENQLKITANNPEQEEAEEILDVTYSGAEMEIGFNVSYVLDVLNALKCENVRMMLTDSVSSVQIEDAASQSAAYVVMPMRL

Columns and labels:
[1] = target: T1, E. coli β clamp (β subunit of DNA polymerase III, dnaN gene product), N-tagged (E. coli, UniProt P0A988 1-366); experiment: SPR competition (Biacore 3000): β ring 0.25 µM mixed with the challenger, injected on immobilised P1
T1 construct: The dnaN gene was cloned in pET15b and expressed in BL21 E. coli; also called β ring; β protein; not shown: N-terminal tag from the pET15b vector (N-tagged protein, enriched on Ni-NTA)

[2] = target: T2, E. coli β clamp (β subunit of DNA polymerase III, dnaN gene product) (E. coli, UniProt P0A988 1-366); experiment: SPR competition: challenger with β ring injected on immobilized P1
T2 construct: Homodimeric ring; N-tagged protein expressed in BL21 E. coli and purified on Ni-NTA and MonoQ; also called β ring; β protein; not shown: N-terminal tag from the pET15b plasmid

Binder | IC50 [1] | IC50 [2]
B1 | 290 nM | –
B2 | – | 290 nM

Reference: US20140287989A1 (CENTRE NATIONAL DE LA RECHERCHE SCIENTIFIQUE, published 2014)
